Results reported in patent US20090081219A1.

Chains of the proteins cited; added tags and fusions are not shown. Residues count along the entry.
UniProt P01589, 22-213 limits assumed: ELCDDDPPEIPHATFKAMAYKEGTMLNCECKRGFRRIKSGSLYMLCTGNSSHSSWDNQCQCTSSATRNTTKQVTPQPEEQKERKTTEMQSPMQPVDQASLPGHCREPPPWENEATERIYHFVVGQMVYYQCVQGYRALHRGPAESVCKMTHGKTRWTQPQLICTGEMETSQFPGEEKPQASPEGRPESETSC

Molecular target: recombinant human CD25 (rhCD25), NS/0-expressed recombinant protein from R&D Systems (cat#223-2A/CF) (human) (UniProt P01589)
Assay: SPR, BIAcore 3000, 25 C; rhCD25 amine-coupled to CM-5 chip at low density, antibody as analyte, 1:1 Langmuir model

Kd: 0.152 nM
Substance: Zenapax (daclizumab, recombinant humanized IgG1 anti-CD25 antibody, Roche)
